# Ab-14 light chain CDR variants: yeast mating affinities

All variants were tested on one target, the spike HR2 peptide PDVDLGDISGINAS (SARS-CoV-2).

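Phage display of a naive human antibody library on the peptide gave the parent. Designed CDR sequences, proposed from the first random library and measured here. Group labels follow the data file (Ctrl: baseline library sampled from a position-specific scoring matrix, with some repeated check sequences; En: ensemble of fine-tuned language models; GP: Gaussian process model; HC: hill climbing; Gen: genetic algorithm; Gibbs: Gibbs sampling; a sequence that several methods proposed may carry one label only). In AlphaSeq, yeast of one mating type display the scFv and yeast of the other type display the target. Mating (16 h, 30 °C) was followed by selection of diploids and sequencing of their barcodes. Scores were corrected for input abundance and mapped to Kd with protein pairs of known affinity run in the same pool. The assay was run in six technical replicates.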

Parent: Ab-14, a human scFv built as VH, a 15-residue (Gly4Ser)3 linker, VL. Only the CDRs of the light chain vary.
VH: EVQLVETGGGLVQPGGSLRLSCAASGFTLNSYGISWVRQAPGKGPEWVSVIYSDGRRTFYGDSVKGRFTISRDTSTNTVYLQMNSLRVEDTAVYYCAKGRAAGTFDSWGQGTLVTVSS
VL: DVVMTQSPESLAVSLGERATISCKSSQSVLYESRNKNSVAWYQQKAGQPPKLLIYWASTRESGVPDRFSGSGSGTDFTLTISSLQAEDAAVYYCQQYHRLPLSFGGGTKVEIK

The parent's light chain CDRs are KSSQSVLYESRNKNSVA, WASTRES, QQYHRLPLS; each variant's own CDRs replace them letter for letter. This list holds designs with more than six substitutions. Kd is apparent (estimated from mating counts) and averaged on the log scale over replicates with a signal. Smaller is tighter. "nd" means that the variant was in the library but no mating with the target was seen in any replicate; the authors take this as a sign of poor binding, and no number exists. Order: sorted from the lowest average up, undetected variants last. The authors' rule: three or more of the six replicates give a measured affinity, fewer mean a poor binder. The range of this assay differs from that of the first round, and the authors advise against merging the two. Empty control strains, which show no peptide, gave a signal in 4% of pairings with all light chain designs; the median was 430 nM and 95% of these signals were weaker than 38 nM. No background was subtracted. The control count says in how many pairings with the empty strains this scFv gave a signal. The parent sequence was in this pool as ten entries: three were never detected, three once, and four in most replicates, with averages from 2.2 nM to 240 nM.

Variant TITQFMDNLAKNRNNVA / DTSTLGD / QSYDRLPLS [En_Gen] showed 530 pM (6 of 6 replicates; controls 0 of 18). With KLSNQADYEDRNKNSVA / SASTRES / QQYHRLPLS [GP_Gibbs] the result was 680 pM (6 of 6 replicates; controls 1 of 18). Variant KLYQNVGTMSHNKQSIA / DMERRET / QQYHRLPLS [En_HC] gave 830 pM (6 of 6 replicates; controls 1 of 18). Variant HVAMEGAEEKNSYRNIA / DASMRLA / QQYVRLPLG [En_Gibbs] gave 910 pM (6 of 6 replicates; controls 0 of 18). With KLEQSTLYEQRMCNSVA / NASQRES / QQYHRLPLS [GP_Gibbs] the result was 1.1 nM (6 of 6 replicates; controls 0 of 18). Variant SISYLDNRGSQGHNNIA / EGSQRAE / QQYIRLPLN [En_Gibbs] showed 1.2 nM (6 of 6 replicates; controls 1 of 18).

With NVGGEDPGQWYMKDSIA / GSSLRAE / QQYWRLPLL [En_Gibbs] the result was 1.3 nM (6 of 6 replicates; controls 0 of 18). With KLSCSELMESRNSNSVA / HASKRES / QDYHRLPLS [GP_Gibbs] the result was 1.6 nM (6 of 6 replicates; controls 2 of 18). For IISQSVMFQQTLINSVA / NAQTREQ / QQYHRLPLS [En_HC], the assay gave 2.0 nM (6 of 6 replicates; controls 0 of 18). Variant KLSQMDLYESRMSNSVA / MASTREV / QQYHRLPLS [GP_Gibbs] gave 2.1 nM (6 of 6 replicates; controls 0 of 18). Variant ALNQKGFQLSGMRDSIA / HSDTRLA / QQYYHLPLA [En_Gibbs] showed 3.7 nM (6 of 6 replicates; controls 0 of 18). Variant KLVQFMNRGTHHTSNIA / DAANRID / QQYARLPLA [En_Gen] gave 4.6 nM (6 of 6 replicates; controls 0 of 18).

For NLYQSMNFLGRVMNSIA / DASTVPD / QQYHRLPLS [En_HC], the assay gave 5.4 nM (6 of 6 replicates; controls 1 of 18). With KISQEVLYESVNKNSVA / GASIRES / QNYHRLPSS [Ctrl] the result was 6.0 nM (6 of 6 replicates; controls 1 of 18). With SIQNLGMVPSVWKNSIA / DVTIVED / QQYYRLPLL [En_Gibbs] the result was 6.5 nM (6 of 6 replicates; controls 1 of 18). Variant TISQMTSSFSQNINNVA / EVSTRCK / QQYDRLPLA [En_Gen] showed 6.7 nM (6 of 6 replicates; controls 0 of 18). For KMFQSWGMEERNVNSVA / HASQRLD / QQYHRLPLS [GP_Gibbs], the assay gave 9.1 nM (6 of 6 replicates; controls 0 of 18). Variant RMDMAMPHAHSNINSIA / EDAIQAD / QQYDRLPLS [En_Gibbs] showed 9.4 nM (4 of 6 replicates; controls 0 of 18).

With IISQSMLYETATHNSIA / QTETREE / QQYHHLPLI [En_HC] the result was 12 nM (6 of 6 replicates; controls 0 of 18). With KLRMSTGYESRMKDSIA / DNSTRGR / QQYHRLPLS [En_HC] the result was 15 nM (6 of 6 replicates; controls 4 of 18). Variant MISQLFNMGQFAINSVA / QASTRNE / QQYDRLPLM [En_Gen] gave 17 nM (5 of 6 replicates; controls 0 of 18). With QISMLLNFESYKTNNVA / QMETRVV / QQYDRLPLT [En_Gen] the result was 21 nM (6 of 6 replicates; controls 1 of 18). With DLTVSDNYGSQLENNIA / QGVCKCE / QQYSRLPLA [En_Gibbs] the result was 34 nM (5 of 6 replicates; controls 0 of 18). With KISMLYNFATTNKNSIA / EMTTRES / QHYHRLPLS [En_HC] the result was 41 nM (4 of 6 replicates; controls 1 of 18).

With HMKDELGLGPKTYSSVA / HGSMREP / QDYYRLPLG [En_Gibbs] the result was 57 nM (6 of 6 replicates; controls 0 of 18). For KLMWSMQYESRNKNSVA / HASYRES / QQYHRLPLS [GP_Gibbs], the assay gave 60 nM (6 of 6 replicates; controls 1 of 18). Variant MLGMTVMQGMYSRNSVA / QEETRAE / QQYHHLPLS [En_HC] gave 63 nM (6 of 6 replicates; controls 0 of 18). For SLSPFMDTDNNKYDSVA / NTANIDI / QQYDRLPLS [En_Gibbs], the assay gave 100 nM (3 of 6 replicates; controls 3 of 18). With HMRHEFYQYDNYDKAVA / HANQRHN / QQYSRLPFS [En_Gibbs] the result was 640 nM (3 of 6 replicates; controls 0 of 18). Variant MMLSHSLEVQNIQNAVA / EASMVYD / QQYVSLPLS [En_Gibbs] showed nd (0 of 6 replicates; controls 0 of 18).

From the AlphaSeq antibody data of Li et al. 2023 (doi:10.1038/s41467-023-39022-2), copy in the FLAb collection.